Sequences of proteins named here, by UniProt entry; tags and fusion partners are left off. Residues count along the entry.
UniProt P06756, 891-1048 partner limits assumed: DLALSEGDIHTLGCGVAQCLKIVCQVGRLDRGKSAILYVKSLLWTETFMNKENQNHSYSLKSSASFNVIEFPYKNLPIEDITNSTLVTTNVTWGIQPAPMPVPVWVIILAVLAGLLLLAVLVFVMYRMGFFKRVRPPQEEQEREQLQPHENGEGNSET
UniProt P06756, 31-889 limits assumed: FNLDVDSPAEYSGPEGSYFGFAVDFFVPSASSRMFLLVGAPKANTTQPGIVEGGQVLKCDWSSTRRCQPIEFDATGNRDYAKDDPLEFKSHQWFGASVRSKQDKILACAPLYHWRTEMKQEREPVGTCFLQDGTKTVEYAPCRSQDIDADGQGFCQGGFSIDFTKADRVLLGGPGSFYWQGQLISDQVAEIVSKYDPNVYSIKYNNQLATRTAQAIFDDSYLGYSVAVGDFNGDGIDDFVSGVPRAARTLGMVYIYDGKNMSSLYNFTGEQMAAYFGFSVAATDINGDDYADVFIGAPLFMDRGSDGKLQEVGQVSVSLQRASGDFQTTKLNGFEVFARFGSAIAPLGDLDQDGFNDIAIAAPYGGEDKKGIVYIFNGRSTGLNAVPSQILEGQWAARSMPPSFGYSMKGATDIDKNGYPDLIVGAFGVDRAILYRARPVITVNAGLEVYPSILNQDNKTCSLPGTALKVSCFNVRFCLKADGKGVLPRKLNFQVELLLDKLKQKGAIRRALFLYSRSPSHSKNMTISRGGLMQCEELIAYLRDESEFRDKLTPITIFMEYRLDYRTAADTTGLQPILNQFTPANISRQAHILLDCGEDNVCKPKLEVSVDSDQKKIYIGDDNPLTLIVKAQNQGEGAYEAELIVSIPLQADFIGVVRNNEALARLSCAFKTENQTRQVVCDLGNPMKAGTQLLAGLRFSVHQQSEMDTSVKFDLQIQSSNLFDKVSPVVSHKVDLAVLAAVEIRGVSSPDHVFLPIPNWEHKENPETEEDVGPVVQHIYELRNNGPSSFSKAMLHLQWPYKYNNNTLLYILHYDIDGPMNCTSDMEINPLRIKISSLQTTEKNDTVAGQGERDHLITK
UniProt P18564, 22-788 limits assumed: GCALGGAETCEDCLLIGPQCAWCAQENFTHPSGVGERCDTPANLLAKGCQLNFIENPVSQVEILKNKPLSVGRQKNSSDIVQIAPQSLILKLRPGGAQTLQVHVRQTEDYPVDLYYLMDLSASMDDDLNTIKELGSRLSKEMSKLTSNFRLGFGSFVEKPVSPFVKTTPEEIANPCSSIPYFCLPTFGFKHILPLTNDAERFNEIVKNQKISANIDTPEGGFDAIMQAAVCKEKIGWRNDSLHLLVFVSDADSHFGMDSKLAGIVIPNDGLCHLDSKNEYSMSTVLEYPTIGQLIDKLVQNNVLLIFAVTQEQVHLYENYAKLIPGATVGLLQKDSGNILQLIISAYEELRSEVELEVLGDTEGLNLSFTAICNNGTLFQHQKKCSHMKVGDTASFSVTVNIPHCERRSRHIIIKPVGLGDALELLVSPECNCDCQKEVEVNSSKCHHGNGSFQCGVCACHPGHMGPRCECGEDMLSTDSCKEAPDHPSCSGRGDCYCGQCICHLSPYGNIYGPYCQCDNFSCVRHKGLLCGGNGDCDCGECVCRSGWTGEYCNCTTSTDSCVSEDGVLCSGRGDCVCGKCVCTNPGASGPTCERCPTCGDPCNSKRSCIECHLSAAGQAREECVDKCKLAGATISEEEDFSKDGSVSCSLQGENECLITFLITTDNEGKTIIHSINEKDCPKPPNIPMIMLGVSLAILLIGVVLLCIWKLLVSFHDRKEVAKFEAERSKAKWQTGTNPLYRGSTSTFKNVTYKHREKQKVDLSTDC

In one data set the target is K562 αvβ6:mCherry cells (αvβ6 integrin) (Homo sapiens, UniProt P06756+P18564). The experiment in a line: biochemical. Format: binding.
Settings: not given
`CC(C)C[C@H](NC(=O)[C@H](CC(=O)O)NC(=O)CNC(=O)[C@H](CCCNC(=N)N)NC(=O)[C@H](CC(C)C)NC(=O)[C@H](CC(N)=O)NC(=O)[C@@H]1CCCN1C(=O)[C@@H](NC(=O)[C@H](C)NC(=O)[C@H](CC(N)=O)NC(=O)CCCC[C@@H]1SC[C@@H]2NC(=O)N[C@@H]21)C(C)C)C(=O)N[C@@H](CCC(N)=O)C(=O)N[C@H](C(=O)N[C@@H](CC(C)C)C(=O)N[C@@H](C)C(=O)N[C@@H](CCC(N)=O)C(=O)N[C@@H](CCCCN)C(=O)N[C@H](C(=O)N[C@@H](C)C(=O)N[C@@H](CCCNC(=N)N)C(=O)N[C@H](C(=O)N[C@@H](CCCCN)C(N)=O)[C@@H](C)O)C(C)C)C(C)C` [A20FMDV2, reference compound] showed a Kd of 0.0631 ± 0.0206 µM.
In the case of `CC(C)C[C@@H]1NC(=O)[C@H](CC(=O)O)NC(=O)CNC(=O)[C@H](CCCNC(=N)N)NC(=O)[C@H](CC(C)C)NC(=O)[C@H](CC(N)=O)NC(=O)[C@@H]2CCCN2C(=O)[C@H](C(C)C)NC(=O)[C@H](C)NC(=O)[C@@H](NC(=O)CCCC[C@@H]2SC[C@@H]3NC(=O)N[C@@H]32)CSc2c(F)c(F)c(c(F)c2F)-c2c(F)c(F)c(c(F)c2F)SC[C@@H](C(=O)N[C@@H](CCCNC(=N)N)C(=O)N[C@H](C(=O)N[C@@H](CCCCN)C(N)=O)[C@@H](C)O)NC(=O)[C@H](C(C)C)NC(=O)[C@H](CCCCN)NC(=O)[C@H](CCC(N)=O)NC(=O)[C@H](C)NC(=O)[C@H](CC(C)C)NC(=O)[C@H](C(C)C)NC(=O)[C@H](CCC(N)=O)NC1=O` [C1C18 DFBP], binding was put at a Kd of 0.0853 ± 0.0186 µM.
Still for that read-out and setting: next, `CC(C)C[C@@H]1NC(=O)[C@H](CC(=O)O)NC(=O)CNC(=O)[C@H](CCCNC(=N)N)NC(=O)[C@H](CC(C)C)NC(=O)[C@H](CC(N)=O)NC(=O)[C@@H]2CCCN2C(=O)[C@H](C(C)C)NC(=O)[C@@H](NC(=O)[C@H](CC(N)=O)NC(=O)CCCC[C@@H]2SC[C@@H]3NC(=O)N[C@@H]32)CSc2c(F)c(F)c(c(F)c2F)-c2c(F)c(F)c(c(F)c2F)SC[C@@H](C(=O)N[C@@H](CCCNC(N)=O)C(=O)N[C@H](C(=O)N[C@@H](CCCCN)C(=O)N[C@H](C)C(N)=O)[C@@H](C)O)NC(=O)[C@H](C(C)C)NC(=O)[C@H](CCCCN)NC(=O)[C@H](CCC(N)=O)NC(=O)[C@H](C)NC(=O)[C@H](CC(C)C)NC(=O)[C@H](C(C)C)NC(=O)[C@H](CCC(N)=O)NC1=O` [C2C18 CitTKAD DFBP]: 0.0758 ± 0.024 µM; `CC(C)C[C@@H]1NC(=O)[C@H](CC(=O)O)NC(=O)CNC(=O)[C@H](CCCNC(=N)N)NC(=O)[C@H](CC(C)C)NC(=O)[C@H](CC(N)=O)NC(=O)[C@@H]2CCCN2C(=O)[C@H](C(C)C)NC(=O)[C@@H](NC(=O)[C@H](CC(N)=O)NC(=O)CCCC[C@@H]2SC[C@@H]3NC(=O)N[C@@H]32)CSc2c(F)c(F)c(c(F)c2F)-c2c(F)c(F)c(c(F)c2F)SC[C@@H](C(=O)N[C@@H](CCCNC(=N)N)C(=O)N[C@H](C(=O)N[C@@H](CCCCN)C(N)=O)[C@@H](C)O)NC(=O)[C@H](C(C)C)NC(=O)[C@H](CCCCN)NC(=O)[C@H](CCC(N)=O)NC(=O)[C@H](C)NC(=O)[C@H](CC(C)C)NC(=O)[C@H](C(C)C)NC(=O)[C@H](CCC(N)=O)NC1=O` [C2C18 DFBP]: 0.0708 ± 0.0203 µM; `CC(C)C[C@@H]1NC(=O)[C@H](CC(=O)O)NC(=O)CNC(=O)[C@H](CCCNC(=N)N)NC(=O)[C@H](CC(C)C)NC(=O)[C@H](CC(N)=O)NC(=O)[C@@H]2CCCN2C(=O)[C@H](C(C)C)NC(=O)[C@@H](NC(=O)[C@H](CC(N)=O)NC(=O)CCCC[C@@H]2SC[C@@H]3NC(=O)N[C@@H]32)CSc2c(F)c(F)c(c(F)c2F)-c2c(F)c(F)c(c(F)c2F)SC[C@@H](C(=O)N[C@H](CCCNC(=N)N)C(=O)N[C@H](C(=O)N[C@@H](CCCCN)C(=O)N[C@H](C)C(N)=O)[C@@H](C)O)NC(=O)[C@H](C(C)C)NC(=O)[C@H](CCCCN)NC(=O)[C@H](CCC(N)=O)NC(=O)[C@H](C)NC(=O)[C@H](CC(C)C)NC(=O)[C@H](C(C)C)NC(=O)[C@H](CCC(N)=O)NC1=O` [C2C18 RDTKAD DFBP]: 0.0553 ± 0.00606 µM.

Test system in another data set: not listed separately
Kind of data set: in vitro. Particulars: mouse, serum.
On to `CC(C)C[C@@H]1NC(=O)[C@H](CC(=O)O)NC(=O)CNC(=O)[C@H](CCCNC(=N)N)NC(=O)[C@H](CC(C)C)NC(=O)[C@H](CC(N)=O)NC(=O)[C@@H]2CCCN2C(=O)[C@H](C(C)C)NC(=O)[C@@H](NC(=O)[C@H](CC(N)=O)NC(=O)CCCC[C@@H]2SC[C@@H]3NC(=O)N[C@@H]32)CSc2c(F)c(F)c(c(F)c2F)-c2c(F)c(F)c(c(F)c2F)SC[C@@H](C(=O)N[C@@H](CCCNC(N)=O)C(=O)N[C@H](C(=O)N[C@@H](CCCCN)C(=O)N[C@H](C)C(N)=O)[C@@H](C)O)NC(=O)[C@H](C(C)C)NC(=O)[C@H](CCCCN)NC(=O)[C@H](CCC(N)=O)NC(=O)[C@H](C)NC(=O)[C@H](CC(C)C)NC(=O)[C@H](C(C)C)NC(=O)[C@H](CCC(N)=O)NC1=O` [C2C18 CitTKAD DFBP], for which the amount remaining at 24 h stood at 10.4%.

(Values after publication PMC8138772 (The Journal of Biological Chemistry, 2021).)
